From US4252898A

Tested on: NRRL 11459
Test: Inhibitor sensitivity of the producing strain (inhibitor in ISP #2 agar)
Format: cell-based, Streptomyces flocculus
Conditions: NRRL11459, read-out: Inhibitor sensitivity, MIC
Description: The cell wall sugars are determined using a modification of the procedure of M. Lechevalier, "Chemical Methods as Criteria for the Separation of Actinomycetes Into Genera", workshop sponsored by the subcommittee on Actionomycetes of the American Society of Microbology, Dr. Thoman G. Pridham, Convenor, held at the Institute of Microbology, Rutgurs University, New Brunswick, N.J., 1971. The isomer of diaminopimelic acid is determined using the method of B. Becker Appl. Microbiol., 11 421 ([…]). Amino acid analysis is determined with washed cell wall fragments. Melanoid pigments are determined using ISP #6 (peptone-yeast extract iron agar) and ISP #7 (tyrosine agar). Inhibitors are tested by incorporating varing concentrations of inhibitors into ISP #2 agar plates and streaking the culture on the surface. Starch hydrolysis is determined by testing for the presence of starch with iodine on ISP #4 agar plates. Temperature range, NaCl tolerance, pH range, and antibiotic sensitivity are done using ISP #2 agar medium. The range of temperatures are: 25°, 28°, 30°, 34°, 37°, 40°, 45°, 50°, 55° C. NaCl tolerance is measured by adding NaCl to the agar to equal: 0, 1, 2, 3, 4, 5, 6, 8, 10, 12% and incubating at 30° C. for 7 days. Antibiotic sensitivity is determined using sensitivity discs padded onto seeded agar plates of ISP #2 medium and incubating at 30° C. for 14 days.

## CCN(CC)c1ccc2cc3ccc(=[N+](CC)CC)cc-3oc2c1 [Pyronin B]
  MIC: 250 µg/mL
